Data taken from patent EP4549446A1 (priority 2023, dated 2025).

Tested on: AML, ALL, and MM cell lines

Row | Compound | viability of AML, ALL, and MM cell lines (MTT assay and flow cytometry, 0-100 µM, 18 h, HL60, KG1a, U937, MV-4-11, TMLCL, Jurkat, MM1.S, OPM-2, U266, compared to untreated control cells) | viability of AML, ALL, and MM cell lines | viability of AML, ALL, and MM cell lines, free or α-CD-encapsulated
1 | C[S+]([O-])CCCCN=C=S (stereo not shown) [SFN-1, sulforaphane, reference compound] | significantly reduced the viability | – | –
2 | CCOP(=O)(NCCOCCOCCOCCN=C=S)OCC [SFN-4, Diethyl (11-isothiocyanato-3,6,9-trioxaundecan-1-yl)phosphoramidate] | – | significantly reduced the viability | –
3 | CCOP(=O)(OCC)OCCCN=C=S [SFN-10, Diethyl (3-isothiocyanatopropyl) phosphate] | – | significantly reduced the viability | reduced the viability
4 | CCOP(=O)(CCCCN=C=S)OCC [SFN-14, Diethyl (4-isothiocyanatobutyl)phosphonate] | – | significantly reduced the viability | –
5 | CC(C)OP(=O)(OCCCN=C=S)OC(C)C [SFN-15, Diisopropyl (3-isothiocyanatopropyl) phosphate] | – | significantly reduced the viability | reduced the viability

Where two headings read alike, the source gives them in different places.
